Measured values published in US11358977B2, “Deuterated pyridone amides and prodrugs thereof as modulators of sodium channels” (VERTEX PHARMACEUTICALS INCORPORATED, priority 2017, dated 2022).

Chains of the proteins cited; added tags and fusions are not shown.
UniProt Q9Y5Y9, whole entry: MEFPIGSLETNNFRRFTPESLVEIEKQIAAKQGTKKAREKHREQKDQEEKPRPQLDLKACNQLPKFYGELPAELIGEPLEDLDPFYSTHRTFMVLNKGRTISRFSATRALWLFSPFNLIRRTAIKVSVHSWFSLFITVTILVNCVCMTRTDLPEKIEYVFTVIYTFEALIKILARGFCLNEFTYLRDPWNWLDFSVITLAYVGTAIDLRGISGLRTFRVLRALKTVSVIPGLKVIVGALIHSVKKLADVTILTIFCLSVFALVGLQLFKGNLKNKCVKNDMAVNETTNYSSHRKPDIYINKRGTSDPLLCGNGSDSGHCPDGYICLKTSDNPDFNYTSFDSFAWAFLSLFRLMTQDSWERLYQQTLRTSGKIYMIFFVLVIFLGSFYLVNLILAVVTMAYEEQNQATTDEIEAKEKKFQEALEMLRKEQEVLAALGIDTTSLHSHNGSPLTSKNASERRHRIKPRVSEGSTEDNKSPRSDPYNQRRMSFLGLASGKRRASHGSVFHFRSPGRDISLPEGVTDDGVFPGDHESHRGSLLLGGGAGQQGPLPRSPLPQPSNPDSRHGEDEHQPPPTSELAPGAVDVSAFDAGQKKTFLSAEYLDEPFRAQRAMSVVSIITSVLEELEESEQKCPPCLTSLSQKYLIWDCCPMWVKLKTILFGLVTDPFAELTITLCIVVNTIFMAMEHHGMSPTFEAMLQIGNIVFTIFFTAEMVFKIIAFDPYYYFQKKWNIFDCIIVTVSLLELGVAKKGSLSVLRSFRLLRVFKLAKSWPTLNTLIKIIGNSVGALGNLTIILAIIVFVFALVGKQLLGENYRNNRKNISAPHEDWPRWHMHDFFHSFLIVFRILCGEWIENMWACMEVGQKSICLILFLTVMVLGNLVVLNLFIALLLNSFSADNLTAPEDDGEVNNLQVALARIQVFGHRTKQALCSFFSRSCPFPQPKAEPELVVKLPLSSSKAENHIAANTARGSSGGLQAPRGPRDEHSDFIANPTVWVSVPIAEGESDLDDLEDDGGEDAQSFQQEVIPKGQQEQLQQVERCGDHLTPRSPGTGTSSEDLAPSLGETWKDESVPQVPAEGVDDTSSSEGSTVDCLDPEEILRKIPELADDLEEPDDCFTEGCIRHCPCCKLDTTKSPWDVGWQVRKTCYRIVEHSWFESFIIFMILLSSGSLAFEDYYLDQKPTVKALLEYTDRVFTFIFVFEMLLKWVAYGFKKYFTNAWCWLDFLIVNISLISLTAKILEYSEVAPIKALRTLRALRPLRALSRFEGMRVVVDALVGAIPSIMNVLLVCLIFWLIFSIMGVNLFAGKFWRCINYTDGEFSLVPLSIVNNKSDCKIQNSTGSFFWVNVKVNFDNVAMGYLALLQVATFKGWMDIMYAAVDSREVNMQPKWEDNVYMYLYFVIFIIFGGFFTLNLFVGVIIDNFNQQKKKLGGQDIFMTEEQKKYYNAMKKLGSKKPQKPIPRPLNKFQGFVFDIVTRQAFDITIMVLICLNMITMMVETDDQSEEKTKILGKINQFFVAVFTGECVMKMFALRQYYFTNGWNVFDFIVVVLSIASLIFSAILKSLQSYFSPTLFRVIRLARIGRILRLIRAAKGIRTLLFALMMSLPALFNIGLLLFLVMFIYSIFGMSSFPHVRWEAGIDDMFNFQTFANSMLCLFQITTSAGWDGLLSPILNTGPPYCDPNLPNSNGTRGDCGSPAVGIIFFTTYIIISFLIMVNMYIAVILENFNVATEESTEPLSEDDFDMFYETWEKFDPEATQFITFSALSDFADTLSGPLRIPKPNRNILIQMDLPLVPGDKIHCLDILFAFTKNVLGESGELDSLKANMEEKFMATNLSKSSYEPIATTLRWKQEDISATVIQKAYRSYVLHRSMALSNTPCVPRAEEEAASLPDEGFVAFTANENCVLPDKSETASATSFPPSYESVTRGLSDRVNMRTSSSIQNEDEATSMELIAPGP

Target: T1, human NaV 1.8 (Homo sapiens, UniProt Q9Y5Y9)
T1 construct: expressed in transfected cells; host or cells: HEK cells, grown under blasticidin selection; KIR2.1 BacMam virus added before seeding
Assay: E-VIPR assay for NaV inhibition
Type: cell-based
Conditions: HEK cells expressing human NaV 1.8, E-VIPR, 11 point dose response, top dose 3 μM; read-out: Nav1.8 IC50
Excerpt: Sodium ion channels are voltage-dependent proteins that can be activated by inducing membrane voltage changes by applying electric fields. The electrical stimulation instrument and methods of use, referred to as E-VIPR, are described in International Publication No. WO 2002/008748 A3 and C.-J. Huang et al. Characterization of voltage-gated sodium channel blockers by electrical stimulation and fluorescence detection of membrane potential, 24 Nature Biotech. 439-46 (2006), both of which are incorporated by reference in their entirety. The instrument comprises a microtiter plate handler, an optical system for exciting the coumarin dye while simultaneously recording the coumarin and oxonol emissions, a waveform generator, a current- or voltage-controlled amplifier, and parallel electrode pairs that are inserted into assay plate wells. Under integrated computer control, this instrument passes user-programmed electrical stimulus protocols to cells within the wells of the microtiter plate.
16-20 Hours prior to running the assay on E-VIPR, HEK cells expressing human NaV 1.8 were seeded into 384-well plates (Greiner #781091-1B), pre-coated with matrigel, at a density of 25,000 cells per well. 5% KIR2.1 Bacmam virus was added to the final cell suspension before seeding into cell plates. […]

IC50: 350 nM
SMILES: [2H]C([2H])([2H])c1cc(F)ccc1Oc1cc(C(F)(F)F)ccc1C(=O)Nc1cc[nH]c(=O)c1 [Compound 7, 2-(4-fluoro-2-(methyl-d3)phenoxy)-N-(2-oxo-1,2-dihydropyridin-4-yl)-4-(trifluoromethyl)benzamide]
